Patent publication US12252481B2, “Anti-viral compounds” (Aligos Therapeutics, Inc., priority 2021, dated 2025)

Experiments:
HeLa cells = assay: Cytotoxicity in HeLa cells without OC43 virus (cell-titer-glo)
Procedure: HeLa human cervical epithelial cells (ATCC) were used as susceptible host cell lines and were cultured using EMEM media, supplemented with 10% fetal bovine serum (FBS), 1% (v/v) penicillin/streptomycin (P/S), 1% (v/v) HEPES and 1% (v/v) cellgro Glutagro™ supplement (all Corning, Manassas, VA) at 37° C. For the OC43 antiviral assay, 1.5×10^4 HeLa cells per well were plated in 100 μL complete media in white 96-well plates with clear bottoms at 37° C. for up to 24 h to facilitate attachment and allow cells to recover from seeding stresses. Next day, the cell culture medium was removed. Serially diluted compounds in 100 μL assay media (EMEM, 2% FBS, 1% P/S, 1% cellgro Glutagro™ supplement, 1% HEPES) were added to the cells and incubated for 4 H at 37° C. in a humidified 5% CO2 incubator. […] 96-well plates were incubated for 6 (HeLa) days at 33° C.; each plate contains uninfected control wells as well as virus-infected wells that were not treated with compound. Cytotoxicity plates without the addition of OC43 virus were carried out in parallel. At the end of the incubation period, 100 μL cell culture supernatant was replaced with 100 μL cell-titer-glo reagent (Promega, Madison, WI) and incubated for at least 10 min at rt prior to measuring luminescence. Luminescence was measured on a Perkin Elmer (Waltham, MA) Envision plate reader. Antiviral % inhibition was calculated as follows: [(Compound treated cells infected sample)−(no compound infected control)]/[(Uninfected control)−(no compound infected control)]*100; Using GraphPad (San Diego, CA) prism software version 8.3.1, the antiviral dose-response plot was generated as a sigmoidal fit, log(inhibitor) vs response-variable slope (four parameters) model and the EC50 was calculated which is the predicted compound concentration corresponding to a 50% inhibition of the viral cytopathic effect. […]

[1] = system: A549-dual_ACE2_TMPRSS2 cells; settings: read-out: A549-dual_ACE2_TMPRSS2 (CC50); assay medium without virus, MTS, numeric values
Procedure: The A549-dual_ACE2_TMPRSS2 cells (InvivoGen Cat #a549-cov2r) were propagated in the growth medium which was prepared by supplementing DMEM (gibco cat no 41965-039) with 10% v/v heat-inactivated FCS and 10 μg/mL blasticidin (InvivoGen ant-bl-05), 100 μg/mL hygromycin (InvivoGen ant-hg-1), 0.5 μg/mL puromycin (InvivoGen ant-pr-1) and 100 μg/mL zeocin (InvivoGen ant-zn-05) in a humidified 5% CO2 incubator at 37° C. The assay medium was prepared by supplementing DMEM (gibco cat no 41965-039) with 2% v/v heat-inactivated FCS.
For antiviral testing, cells were seeded in 96-well plates (Falcon) at a density of 15,000 cells per well in assay medium. After overnight growth, cells were treated with the indicated compound concentrations and infected with a MOI of 0.001 TCID50/cell (final volume 200 μL/well in assay medium). On day 4 p.i. differences in cell viability caused by virus-induced CPE or by compound-specific side effects are analyzed using MTS as described previously (PMID: 22575574).
For toxicity testing, the same experimental setup was used except that assay medium without virus was added to the cells and that an additional control of well without cells was added to the plate.
Table 4 indicates related EC50 and CC50 values for the tested compounds ‘A’ indicates an EC50<100 nM, ‘B’ indicates an EC50 of ≥100 nM and <1000 nM, ‘C’ indicates an EC50≥1000 nM and <10000 nM. For CC50, the values are reported in micromolar (μM). ‘A’ indicates a CC50≥10 μM. ‘B’ indicates a CC50≥1 μM and <10 μM.

| SMILES | CC50 (HeLa cells) | CC50 [1] |
| --- | --- | --- |
| CC(C)(C(NC(=O)C(F)(F)F)C(=O)N1C[C@H]2[C@@H]([C@H]1C(=O)N[C@H](C#N)C[C@@H]1CCNC1=O)[C@H]1C=C[C@@H]2C1)C(F)(F)F (stereo partly drawn) | > 100 µM | > 1 µM |
| CC(C)(C)[C@H](NC(=O)C(F)(F)F)C(=O)N1C[C@H]2[C@@H]([C@H]1C(=O)N[C@H](C#N)CC1CC3(CC(F)(F)C3)NC1=O)[C@H]1C=C[C@@H]2C1 (single isomer, unassigned) [83a] | > 100 µM | > 10 µM |
| CC(C)(C)[C@H](NC(=O)C(F)(F)F)C(=O)N1C[C@H]2[C@@H]([C@H]1C(=O)N[C@H](C#N)CC1CC3(CC(F)(F)C3)NC1=O)[C@H]1C=C[C@@H]2C1 (single isomer, unassigned) [83b] | > 100 µM | > 1 µM |
